Source: ChEMBL document CHEMBL2407068, “Tropolones as lead-like natural products: the development of potent and selective histone deacetylase inhibitors” (ACS Med Chem Lett, 2013)

Sequences of proteins named here, by UniProt entry; tags and fusion partners are left off. A change or cut given only in a name is not applied to a line headed by its entry.
UniProt Q9UQL6: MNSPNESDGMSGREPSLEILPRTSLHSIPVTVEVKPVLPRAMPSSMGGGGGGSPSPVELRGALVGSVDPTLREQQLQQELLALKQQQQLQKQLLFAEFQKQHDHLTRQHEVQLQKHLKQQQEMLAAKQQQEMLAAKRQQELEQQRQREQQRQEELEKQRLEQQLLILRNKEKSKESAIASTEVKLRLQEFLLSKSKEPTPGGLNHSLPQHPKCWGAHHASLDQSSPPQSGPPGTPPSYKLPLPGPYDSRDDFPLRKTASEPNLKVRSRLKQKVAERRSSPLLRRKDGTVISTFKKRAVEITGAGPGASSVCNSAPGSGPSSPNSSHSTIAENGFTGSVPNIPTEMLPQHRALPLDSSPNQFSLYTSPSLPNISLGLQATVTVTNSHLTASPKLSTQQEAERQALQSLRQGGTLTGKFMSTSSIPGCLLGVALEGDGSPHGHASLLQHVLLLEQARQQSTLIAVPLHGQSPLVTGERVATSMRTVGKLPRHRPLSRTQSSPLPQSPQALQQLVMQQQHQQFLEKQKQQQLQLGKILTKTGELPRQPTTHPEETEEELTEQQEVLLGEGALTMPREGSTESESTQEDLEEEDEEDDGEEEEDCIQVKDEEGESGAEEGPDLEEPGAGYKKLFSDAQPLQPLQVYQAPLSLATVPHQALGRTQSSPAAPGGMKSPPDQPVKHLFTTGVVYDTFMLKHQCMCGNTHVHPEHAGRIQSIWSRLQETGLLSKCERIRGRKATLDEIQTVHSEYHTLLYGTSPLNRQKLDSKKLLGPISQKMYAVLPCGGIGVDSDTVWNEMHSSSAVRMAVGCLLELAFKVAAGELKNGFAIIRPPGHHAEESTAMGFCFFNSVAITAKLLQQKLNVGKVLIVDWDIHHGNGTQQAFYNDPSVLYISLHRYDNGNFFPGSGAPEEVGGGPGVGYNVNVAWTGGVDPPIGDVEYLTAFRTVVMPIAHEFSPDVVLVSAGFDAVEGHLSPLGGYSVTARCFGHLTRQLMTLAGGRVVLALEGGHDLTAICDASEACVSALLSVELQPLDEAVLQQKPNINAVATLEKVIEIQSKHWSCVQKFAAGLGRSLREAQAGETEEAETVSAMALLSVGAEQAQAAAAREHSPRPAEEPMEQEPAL

Molecular target: Histone deacetylase 5 (Homo sapiens, UniProt Q9UQL6)
Experiment: Inhibition of human recombinant HDAC5 by Michaelis-Menten equation analysis

CC(/C=C/C(=O)NO)=C\[C@@H](C)C(=O)c1ccc(N(C)C)cc1 [TRICHOSTATIN]
Ki: 4.12 µM
